Reference: patent US9051591B2, “Bacterium of enterobacteriaceae family producing L-aspartic acid or L-aspartic acid-derived metabolites and a method for producing L-aspartic acid or L-aspartic acid-derived metabolites” (AJINOMOTO CO., INC., priority 2010, dated 2015)

T1: ADH (Polaromonas sp.) (Polaromonas sp., UniProt Q126F5)
T1 sequence (Q126F5 1-267): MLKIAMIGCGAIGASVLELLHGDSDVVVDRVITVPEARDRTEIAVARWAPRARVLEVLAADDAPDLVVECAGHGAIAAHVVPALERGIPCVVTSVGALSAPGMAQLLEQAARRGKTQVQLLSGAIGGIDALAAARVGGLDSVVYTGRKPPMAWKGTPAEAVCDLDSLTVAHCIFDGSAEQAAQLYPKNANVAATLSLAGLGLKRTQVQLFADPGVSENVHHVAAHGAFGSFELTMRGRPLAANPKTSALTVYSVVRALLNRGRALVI

T2: purified ADH (Polaromonas sp.) (Polaromonas sp., UniProt Q126F5)
T2 sequence (Q126F5 1-267): T1 sequence (Q126F5 1-267)

T3: Polaromonas sp. aspartate dehydrogenase (Polaromonas sp., UniProt Q126F5)
T3 sequence (Q126F5 1-267): T1 sequence (Q126F5 1-267)

B1: Polaromonas sp. ADH (Polaromonas sp. JS666) (protein)
chain: T1 sequence (Q126F5 1-267)

Columns and labels:
[1] = biological target: T1, ADH (Polaromonas sp.); assay: Screening of substrate specificity, ADH; settings: relative to oxaloacetate; 20 mM substrate, […] NADH, pH 9
[2] = biological target: T2, purified ADH (Polaromonas sp.); assay: Screening of alternative substrates for purified ADH; settings: 10 mM, […] NADH, 50 mM NH4Cl, 29° C.
[3] = biological target: T3, Polaromonas sp. aspartate dehydrogenase; assay: Regulatory properties of the ADH; settings: addition of 1 mM, 29° C., pH 9.8
[4] = substrate: O=C(O)CC(=O)C(=O)O; assay: purified protein, by the assay type; settings: other: Oxaloacetate reductive amination; Michaelis-Menten plots
[5] = substrate: NC(=O)c1ccc[n+]([C@@H]2O[C@H](COP(=O)([O-])OP(=O)(O)OC[C@H]3O[C@@H](n4cnc5c(N)ncnc54)[C@H](O)[C@@H]3O)[C@@H](O)[C@H]2O)c1; assay: purified protein, by the assay type; settings: other: Aspartic acid oxidative deamination; Michaelis-Menten plots

| Molecule | Amination activity, ADH [1] | ability to replace oxaloacetate in forward reaction [2] | effect on ADH activity in forward and reverse reactions [3] | kcat/Km [4] | kcat/Km [5] |
| --- | --- | --- | --- | --- | --- |
| O=C(O)CCC(=O)C(=O)O [α-ketoglutarate] | na (no activity (<0.2%)) | No activity | not significantly affected | – | – |
| B1 | – | – | – | 15000 ± 3330 M⁻¹ s⁻¹ | 34700 ± 1000 M⁻¹ s⁻¹ |
